# Measured values from PMC10892935 (Viruses, 2024).
# Target: FHV-1 gB (Feline herpesvirus 1, UniProt Q86665)
# Test: biochemical
# Type: binding, feline herpesvirus-1 (FHV-1)
structure (smiles),measurement,setting,value
CC1OC(OC2CCC3(C)C(CCC4(C)C3C=CC3=C5CC(C)(C)CCC5(CO)C(O)CC34C)C2(C)CO)C(O)C(OC2OC(CO)C(O)C(O)C2O)C1O (centres unmarked) [Saikosaponin B2],koff,read-out: Kdis (rate of dissociation),0.922 s⁻¹
same,kon,read-out: Kon (rate of association),3150 M⁻¹ s⁻¹
